For the test, the target named is G protein-coupled receptor kinase 5 (Homo sapiens, UniProt P34947). The experiment in a line: Assays for Inhibition of GRKs: GRK1, 2 and 5 kinetic assays were conducted in a buffer containing 20 mM HEPES pH 7.0, 5 μM ATP, 2 mM MgCl2, and […] DDM with 50 nM GRK and either 500 nM bROS or 500 nM soluble substrate tubulin in 5 min reactions. The low salt concentration and DDM were used to maximize GRK activity and disrupt small molecule aggregates from forming, respectively. Reactions were.

The chains behind the UniProt entries cited, without tags or fusion partners.
UniProt P34947, whole entry: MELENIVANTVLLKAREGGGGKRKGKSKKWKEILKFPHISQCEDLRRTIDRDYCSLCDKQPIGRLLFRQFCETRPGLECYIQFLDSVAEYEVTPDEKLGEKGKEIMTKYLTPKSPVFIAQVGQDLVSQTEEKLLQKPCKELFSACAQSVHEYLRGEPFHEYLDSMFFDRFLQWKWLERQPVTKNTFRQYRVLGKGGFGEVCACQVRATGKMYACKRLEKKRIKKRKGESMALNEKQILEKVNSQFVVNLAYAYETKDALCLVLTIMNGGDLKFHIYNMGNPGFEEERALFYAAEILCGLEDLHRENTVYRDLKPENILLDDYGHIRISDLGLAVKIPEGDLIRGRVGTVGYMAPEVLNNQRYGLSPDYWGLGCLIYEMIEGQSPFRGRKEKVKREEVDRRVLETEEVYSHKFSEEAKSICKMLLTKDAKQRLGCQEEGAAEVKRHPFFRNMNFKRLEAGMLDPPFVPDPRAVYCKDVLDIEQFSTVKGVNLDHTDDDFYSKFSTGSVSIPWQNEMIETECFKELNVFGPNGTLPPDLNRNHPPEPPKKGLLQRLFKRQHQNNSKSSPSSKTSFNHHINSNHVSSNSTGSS

A word on the IC50: it is the midpoint of a concentration-inhibition curve.

On to `COc1ccccc1C(C)NC(=O)c1cc(C2NC(=O)NC(C)=C2C(=O)Nc2ccc3[nH]ncc3c2)ccc1F` (stereo unspecified), for which the half-maximal inhibitory concentration (IC50) was determined as 2.4 µM.

For the origin of these results see ChEMBL document CHEMBL5725686, “G protein-coupled receptor kinase 2 inhibitors and methods for use of the same” (2018).
